Here are results for 2 molecules from patent US20080221060A1, “Therapeutic Compounds” (priority 2004, published 2008).

The chains behind the UniProt entries cited, without tags or fusion partners.
UniProt P30543, whole entry: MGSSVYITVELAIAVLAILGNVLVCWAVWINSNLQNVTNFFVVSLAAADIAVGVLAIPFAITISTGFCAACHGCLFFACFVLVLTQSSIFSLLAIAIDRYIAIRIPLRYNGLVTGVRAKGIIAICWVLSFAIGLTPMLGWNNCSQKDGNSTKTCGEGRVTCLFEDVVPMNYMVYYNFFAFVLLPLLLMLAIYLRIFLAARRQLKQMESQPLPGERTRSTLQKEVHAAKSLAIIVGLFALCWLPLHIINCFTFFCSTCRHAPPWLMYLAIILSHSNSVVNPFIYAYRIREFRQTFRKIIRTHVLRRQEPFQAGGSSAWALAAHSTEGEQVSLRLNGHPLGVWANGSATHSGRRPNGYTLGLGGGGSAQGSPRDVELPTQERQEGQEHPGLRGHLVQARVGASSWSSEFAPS

The target of this experiment is adenosine receptors (rat striatal membranes, [3H]-CGS21680) (Rattus norvegicus, UniProt P30543). Description: Ki from displacement of [3H]-CGS21680 in rat striatal membranes at pH 5.5 and pH 7.4. As to conditions: 2 nM [3H]-CGS21680, 90 minutes at 22° C. It is filed as binding.
Where [1] appears, read: read-out: (Ki) nM (pH 5.5), pH 5.5.
The mark [2] stands for this setting: read-out: (Ki) nM (pH 7.4), pH 7.4.

Read-outs that look alike come from different tables or passages of the source.

The term Ki denotes the dissociation constant of the complex between target and ligand, obtained from inhibition or displacement. On to `CCCCCCOc1nc(N)c2ncn([C@@H]3O[C@H](CO)C[C@H]3O)c2n1`, for which the inhibition constant Ki by setting is: under setting [1], 13 nM; under setting [2], 2990 nM.

As for `CCCCCCCc1nc(N)c2ncn([C@@H]3O[C@H](CO)[C@@H](O)[C@H]3O)c2n1`, the Ki reads like this: under setting [1], 15 nM; under setting [2], 800 nM.
